The numbers were not newly measured in patent US6143737A, “Progesterone analogs to reverse multidrug resistance” (priority 1996, dated 2000), which cites them from elsewhere.

The test system of this series is MCF-7^MDR1 cells. Particulars: MCF-7^MDR1 vs parental MCF-7; cited from earlier work.

`CC/C(=C(\c1ccc(O)cc1)c1ccc(OCCN(C)C)cc1)c1ccccc1` [4-hydroxy TAM]: the “sensitivity of transduced vs parental cells” value was “retain ER and PGR expression, and sensitivity”.
